Earlier results in patent US20170143824A1 (Teva Pharmaceutical Industries, Ltd., priority 2013, published 2017).

Assays:
[1] = after subcutaneous (SC) administration, after one hour

## L-glutamic acid polymer with L-alanine, L-lysine, L-tyrosine, acetate (salt) [glatiramer acetate]
[1]
  remaining at the injection site: 10%
patients; 20 mg subcutaneous daily
  severity of most adverse events: mild to moderate
patients; 10- and 15-year follow-up visits
  immunosuppression or emergence of malignancy or other autoimmune diseases: not associated
